# From PubChem BioAssay AID1439 (NMMLSC, 2008)
# Chains of the proteins cited; added tags and fusions are not shown.
# UniProt P09471, whole entry: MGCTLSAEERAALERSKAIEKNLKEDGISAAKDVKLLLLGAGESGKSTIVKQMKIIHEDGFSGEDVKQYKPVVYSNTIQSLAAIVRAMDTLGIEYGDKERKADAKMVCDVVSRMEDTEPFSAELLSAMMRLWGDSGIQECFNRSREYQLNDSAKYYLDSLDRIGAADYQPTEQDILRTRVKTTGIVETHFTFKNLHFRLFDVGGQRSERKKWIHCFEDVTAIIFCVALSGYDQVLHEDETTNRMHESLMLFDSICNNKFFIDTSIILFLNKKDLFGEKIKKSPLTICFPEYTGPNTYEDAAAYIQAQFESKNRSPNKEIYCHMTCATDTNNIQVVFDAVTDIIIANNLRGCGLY
# The entries are a selection whose mix differs from that of the whole data set. Inconclusive results are not listed. Active and inactive are the calls of the source. Rule as the data show it: active = binding response below about 49% or above about 150%; inconclusive = no clear call, values can overlap the other calls; inactive = in between.
# Molecular target: Guanine nucleotide-binding protein G(o) subunit alpha (Homo sapiens) (UniProt P09471)
# Test: RGS7-Galphao binding modulators, primary screen, biochemical, multiplexed bead flow cytometry (AID 1439);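 also: fluorescent Galphao held in activated GDP-AlF4 state binding bead-coupled RGS7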
# Settings: at 10 µM, actives lie on both sides
row,Compound,binding response (% of control)
1,O=[N+]([O-])c1cc([N+](=O)[O-])c(Nc2ccccn2)c([N+](=O)[O-])c1,inactive: 101%
